The record followed here is patent publication US20170191988A1.

The target of assay [1] is long AHLR assay construct (ssFLAG-long AHLR-HA-lyt2) (mouse) (UniProt P01731). Nature of the assay: cell-based or functional assay.
For assay [2], the target named is short AHLR assay construct (ssFLAG-short AHLR-HA-lyt2) (mouse) (UniProt P01731). Nature of the assay: cell-based or functional assay.

As for “HA-tagged MMP-14 protein (full-length human MMP-14 with an HA-tag upstream of the MMP-14 transmembrane domain) (from UniProt P50281 112-582) (enzyme)”, in assay [1], the FLAG cell surface detection (% cells, flow cytometry), AHLR co-transfected with MMP-14 plasmid against control plasmid was determined as 14%; the FLAG cell surface expression, mean of replicates (n=4), AHLR+ cells transfected with MMP-14 against control plasmid amounted to 36.1%; the FLAG expression, mean of replicates (n=4), AHLR+ cells with MMP-14(i) and rtTA, after against before dox induction is 74.8%; the FLAG tag (% cells, flow cytometry, n=5), 50K AHLR+ cells mixed with 175K MMP-14+ cells against naive HEK 293T control came to 15.2%. In assay [1], this substance had an FLAG tag expression on the cell surface (% FLAG-positive cells, flow cytometry), HEK 293T co-transfected with MMP-14 against substrate alone of 24%; an FLAG tag signal (% cells, flow cytometry), HEK-293T co-transfected with AHLR, MMP-14 (i) and rtTA, with dox against without dox of 22%; an FLAG tag signal (% cells, flow cytometry), constitutive MMP-14 (c) co-transfected with AHLR of 11%; an FLAG-tag signal (% cells, flow cytometry), AHLR+ cells transfected with constitutive MMP-14(c) of 33%. Besides, in assay [1], the FLAG-tag signal (% cells, flow cytometry), AHLR+ cells transfected with inducible MMP-14(i), with dox was 38%; the FLAG-tag signal (% cells, flow cytometry), AHLR+ cells transfected with inducible MMP-14(i), without dox is 56%; the FLAG-tag staining (% cells, flow cytometry), stable AHLR+ cells transfected with MMP-14(c) turned out to be 23%. This substance returned an FLAG tag expression on the cell surface (% FLAG-positive cells, flow cytometry), HEK 293T co-transfected with MMP-14 against substrate alone in assay [2] of 19%.
